# Sampled rows, rich in hits. Any-hit rate of the full collection: about 1.2%.
# miR-122 sensor = miR-122 Renilla sensor signal increase in Huh7, primary screen, miR-122 inhibitor project, cell-based, single point, plate reader; Huh7 miR-122 Renilla luciferase sensor, 48 h; neutral wells = 0, positive control = 100; activation (reporter increase), % at 12.5 µM; 340,000 tested, 0.3% active;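 active = mean replicate activation score at least 90 and every replicate individually at or above 90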;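 note: higher luciferase means less miR-122 activity so hits act as miR-122 inhibitors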
# Glyco luc inh = increase of ERlucT glycosylation luciferase signal, primary screen, N-linked glycosylation inhibitor project, D54 ERlucT cells, luminescence, set 2; D54 ERlucT glycosylation luciferase reporter, 24 h; percent of 100 nM tunicamycin response; AID 588692, 2011; reporter increase, % at 12.5 µM; 360,000 tested, 0.23% active;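 active = mean luciferase reporter signal, scaled so untreated is 0 and the glycosylation-blocking control 100, at or above a set limit in every replicate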;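 note: luciferase carries N-glycosylation sites so blocking glycosylation raises the light; 0% = median of neutral control wells and 100% = median of 100 nM tunicamycin wells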
# UUG fidelity = yeast start codon fidelity modulation. S. cerevisiae UUG-firefly luciferase reporter, luminescence/redox ratio. activity score, % at 18.7 µM. 0.13% of 350,000 active;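 active means replicate mean at a twofold rise or more, about +100% in these data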;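 further: firefly luciferase made from a UUG start codon reports start codon fidelity; reporter light over untreated wells divided by growth signal over untreated wells; some hits fall short of that in this replicate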
# Statin myotox sup = suppressors of statin myotoxicity in C2C12 myotubes, primary screen, cell-based, single point, plate reader. C2C12 myotubes + simvastatin, ATP luminescence, 48 h; scaled: DMSO 0, geranylgeraniol control 100. rescue of ATP level, % at 7.49 µM. 330,000 tested, 0.78% active. AID 602340, 2012;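 active = mean ATP rescue above about 67%, or every replicate alone reaching that limit, limit read from the data, passing the limit was not always enough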;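 note: myotubes were challenged with 10 µM simvastatin during compound exposure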
# Cneo AK release = Cryptococcus neoformans cell lysis inducers, primary screen, AK release luminescence, single concentration; C. neoformans lysis, adenylate kinase release luminescence, 4 h; normalised: neutral wells 0, clomiphene wells 100; lysis activity, % at 15 µM; 360,000 tested, 0.2% active;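 active = mean lysis activity across replicates of at least 80%, whatever share of replicates individually reach that level; inactive = mean lysis activity below 80%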
#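 Material – Cryptococcus neoformans yeast cells · Quantity – 5 × 10^6 yeast cells/mL · Buffer or medium – YPD medium · Compound – single dose · Timing – 4 h static compound exposure, 37 °C, read 1 h post-reagent · Signal – adenylate kinase release luminescence · Read-out basis – lysis from increased AK signal · Benchmarks – Clomiphene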
# An asterisk follows results filed as active; / = not tested or not shown; [ ] = another dose, or the depositor's remark.
# Screens in order: miR-122 sensor | Glyco luc inh | UUG fidelity | Statin myotox sup | Cneo AK release
CC(=O)Nc1ccc(C(=O)N2CCCCC2c2cc(C(=O)N3CCOCC3)no2)cc1 (stereo not drawn)
 : -5 | 1 | -7 | 1 | 0
CCOC(=O)C1CCCN(C(=O)C(=O)c2cn(CC(=O)N3CCOCC3)c3ccccc23)C1 (stereo not drawn)
 : 2 | 1 | 5 | -1 | 0
Cc1ccc(NS(=O)(=O)c2ccc(-c3ccc(=O)[nH]n3)o2)cc1N(C)C
 : 0 | -1 | -9 | -6 | 2
Cc1ccc(NS(=O)(=O)c2ccc(-c3ccc(=O)[nH]n3)o2)cc1Cl
 : 15 | 4 | -21 | 137* | 2
O=C(N[C@@H]1CC[C@@H](CCn2cc(C3(O)CCCC3)nn2)O[C@H]1CO)C1CCC1
 : / | / | -8 | -2 | -3
O=C(COc1ccc2ccccc2c1)NNC(=O)Cc1ccccc1
 : -1 | 1 | 2 | -8 | -1
O=C(COc1ccc2ccccc2c1)NNC(=O)Cc1cccc2ccccc12
 : -4 | 1 | -19 | 114* | -2
CC/C(O)=C(\C#N)c1nnc2n1CCCCC2
 : 4 | 3 | -5 | 87* | 0
O=C(C[C@H]1C[C@@H]2c3cc(NS(=O)(=O)c4ccc(F)cc4)ccc3O[C@@H]2[C@@H](CO)O1)NCc1cccnc1
 : 7[16.7 µM] | / | / | -2 | -5
Cc1ccc(C(=O)NNC(=O)C2CCN(Cc3ccc(Cl)c(Cl)c3)CC2)cc1
 : -2 | 2 | 3 | 135* | 1
Cc1ccc(C(=O)NNC(=O)C2CCN(Cc3ccccc3)CC2)cc1
 : 9 | 1 | / | / | /
Cn1c(=S)oc2ccccc21
 : -3 | 1 | -3 | 89* | -1
Cc1ccc2oc(=S)n(C)c2c1
 : / | 2 | / | / | /
Cc1ccc(S(=O)(=O)N(CC(=O)NCc2cccs2)c2ccccc2)cc1
 : 20 | 0 | -17 | -2 | 0
Cc1ccc(N(CC(=O)NCc2cccs2)S(=O)(=O)c2cccs2)cc1
 : 182* | -3 | -17 | 20 | -2
COc1ccc(CCNC(=O)C2CCC(CNc3c(N4CCCC4)c(=O)c3=O)CC2)cc1OC (stereo not drawn)
 : -2 | 3 | / | 86* | /
CC1CCN(c2c(NCC3CCC(C(=O)NCCc4ccc(Cl)cc4)CC3)c(=O)c2=O)CC1 (stereo not drawn)
 : / | -1 | / | / | /
CCS(=O)(=O)N1CCCC(C(=O)NCCc2ccc(OC)c(OC)c2)C1 (stereo not drawn)
 : -8 | 0 | -4 | 127* | -2
COc1ccc(S(=O)(=O)Nc2ccc3c(c2)C(=O)N([C@@H](C)CO)C[C@H](C)[C@@H](CN(C)C(=O)Nc2ccc(F)cc2)O3)cc1
 : 4[16.7 µM] | / | 19 | -25 | -3
O=C(N[C@H]1CC[C@@H](CCNS(=O)(=O)c2cccc(Cl)c2)O[C@H]1CO)c1ccc(F)cc1
 : / | / | 7 | 5 | 5
C[C@@H]1CCCCO[C@@H](CN(C)S(=O)(=O)c2ccccc2)[C@@H](C)CN([C@@H](C)CO)C(=O)c2cc(NC(=O)C3CCCCC3)ccc2O1
 : -7[16.7 µM] | / | -8 | / | 0
C[C@H]1CN([C@@H](C)CO)C(=O)c2cccc(NS(C)(=O)=O)c2O[C@H]1CN(C)C(=O)Nc1ccc2c(c1)OCO2
 : -4[16.7 µM] | / | 28 | / | 114*
C[C@@H]1CN([C@@H](C)CO)C(=O)c2cccc(NS(C)(=O)=O)c2O[C@@H]1CN(C)C(=O)Nc1ccc2c(c1)OCO2
 : 9[16.7 µM] | / | 35 | / | 88*
C[C@@H]1CN([C@H](C)CO)C(=O)c2cccc(NS(=O)(=O)c3ccccc3)c2O[C@H]1CN(C)C(=O)Nc1ccc2c(c1)OCO2
 : -1[16.7 µM] | / | 13 | 5 | 3
O=C(CC1CC1)N1[C@H](CO)[C@H]2c3ccccc3N(S(=O)(=O)c3ccccc3)C[C@H]21
 : 17[16.7 µM] | / | 11 | -8 | 1
O=C(CC1CC1)N1[C@@H]2CN(S(=O)(=O)c3ccccc3)c3ccccc3[C@@H]2[C@@H]1CO
 : 25[16.7 µM] | / | 20 | -19 | 106*
COCCNC(=O)C[C@H]1C[C@@H]2c3cc(NC(=O)C4CCC4)ccc3O[C@@H]2[C@H](CO)O1
 : 43[16.7 µM] | / | 25 | -6 | 103*
COCCNC(=O)C[C@@H]1C[C@H]2c3cc(NC(=O)C4CCC4)ccc3O[C@H]2[C@H](CO)O1
 : 2[16.7 µM] | / | 7 | -2 | -15
O=C(C[C@H]1C[C@@H]2c3cc(NC(=O)c4cccnc4)ccc3O[C@@H]2[C@@H](CO)O1)NCCc1ccccc1
 : 10[16.7 µM] | / | / | -3 | 81*
COCCNC(=O)C[C@@H]1C[C@@H]2c3cc(NC(=O)C4CCOCC4)ccc3O[C@@H]2[C@@H](CO)O1
 : 32[16.7 µM] | / | 12 | 0 | 98*
CCOc1cc(C(=O)Nc2ccc(C(=O)NCCN(CC)CC)cc2)ccc1OCC(=O)N1CCOCC1
 : -1 | -1 | 0 | 0 | -8
CO[C@H]1CN(C)C(=O)c2ccc(NC(=O)c3ccc(F)cc3)cc2OC[C@H](C)N(C(C)=O)C[C@@H]1C
 : / | / | -2 | -6 | -10
CC(=O)c1c(C)[nH]c(C(=O)NCc2ccccc2Cl)c1C
 : 89 | 0 | -21 | -2 | -1
CCc1c(C(=O)NC2CCCCC2)[nH]c(C)c1C(C)=O
 : 212* | 0 | -3 | 0 | 2
CCc1c(C(=O)NCc2ccccc2Cl)[nH]c(C)c1C(C)=O
 : 118* | -3 | -10 | 28 | 0
CN1c2ccc(C3=CCCCC3)cc2[C@@H]2[C@@H](CCN2C(=O)Nc2ccccc2F)[C@@H]1CO
 : -4[16.7 µM] | / | -15 | 22 | 1
Cc1ccc(S(=O)(=O)Nc2cccc3c2O[C@H](CN(C)Cc2ccc(C(=O)O)cc2)[C@@H](C)CN([C@H](C)CO)C3=O)cc1
 : 1[16.7 µM] | / | 19 | -31 | 54
O=C(c1ccccc1)c1nc[nH]c1C(=O)Nc1ccccn1
 : 0 | 6 | -19 | 120* | 5
C[C@@H]1CN([C@H](C)CO)C(=O)Cc2cc(NC(=O)c3ccncc3)ccc2O[C@H]1CN(C)Cc1ccc(Cl)c(Cl)c1
 : -6[16.7 µM] | / | / | 58 | 4
C[C@H](CO)N1C[C@H](C)[C@H](CN(C)Cc2ccncc2)Oc2ccc(NC(=O)c3ccncc3)cc2CC1=O
 : 5[16.7 µM] | / | 2 | -1 | -1
C[C@H](CO)N1C[C@H](C)[C@@H](CN(C)Cc2ccc(Cl)c(Cl)c2)Oc2ccc(NC(=O)c3ccncc3)cc2CC1=O
 : -3[16.7 µM] | / | / | 133* | 1
C[C@@H]1CN([C@@H](C)CO)C(=O)Cc2cc(NC(=O)c3ccncc3)ccc2O[C@H]1CN(C)Cc1ccncc1
 : 3[16.7 µM] | / | 22 | -2 | 100*
C[C@H](CO)N1C[C@H](C)[C@@H](CN(C)Cc2ccc(-c3ccccc3)cc2)Oc2ccc(NC(=O)c3ccncc3)cc2CC1=O
 : -2[16.7 µM] | / | -3 | 124* | 1
